Earlier results on 1 substance are cited in patent publication US20220111042A1, “MANF as a Regulator of Immune System Function” (University of Massachusetts, priority 2014, published 2022).

This data set has as its system MANF expression. Particulars: CTLL-2 cells, up to 24 hours following IL-2 stimulation; cited from earlier work.

In the case of “interleukin-2: cytokine that regulates T cell proliferation and differentiation”, the MANF expression levels result is reported as “become elevated”.
